{"source": "patent US12187720B2", "about": "“Compounds for treatment of cancer” (ONCTERNAL THERAPEUTICS, INC., priority 2010, dated 2025)", "assay": "Pharmacokinetic study in Sprague-Dawley rats", "settings": "[…] (1h, 2r), 5 mg/kg (5Ha, 5Hc)", "data": [{"smiles": "COc1cc(C(=O)c2csc(-c3ccccc3)n2)cc(OC)c1OC", "note": "[1h, (2-Phenyl-thiazol-4-yl)-(3,4,5-trimethoxy-phenyl)-methanone]", "values": [{"measurement": "Cmax, IV", "value": "3816 ± 509", "unit": "ng/mL"}]}]}
